Data on two compounds can be found in patent US8124794B2, “Method for the asymmetric synthesis of beta-lactone compounds” (Sanford-Burnham Medical Research Institute, priority 2006, dated 2012).

Amino acid sequences for entries named in this document (tags omitted). Residues count along the entry.
UniProt P49327, 2207-2511 limits assumed: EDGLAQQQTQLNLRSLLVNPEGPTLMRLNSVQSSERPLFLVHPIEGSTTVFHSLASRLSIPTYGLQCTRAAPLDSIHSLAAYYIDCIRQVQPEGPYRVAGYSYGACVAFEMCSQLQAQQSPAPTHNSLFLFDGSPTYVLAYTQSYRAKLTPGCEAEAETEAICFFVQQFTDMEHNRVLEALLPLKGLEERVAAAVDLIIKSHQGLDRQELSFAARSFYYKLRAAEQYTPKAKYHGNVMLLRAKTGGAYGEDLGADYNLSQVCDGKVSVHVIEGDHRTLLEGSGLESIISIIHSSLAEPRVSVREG

This assay addresses recombinant thioesterase domain of fatty acid synthase (FAS TE) (Homo sapiens, UniProt P49327). In words: Fluorogenic assay (4-MUH substrate) for inhibition of recombinant FAS thioesterase domain. It is filed as biochemical. To be noted: read-out: apparent Ki, 30 min pre-incubation at 37 deg.C.

As to `O=C1O[C@H](CCC2CCCC2)[C@H]1CC1CCCC1`, the Ki was found to be 6.7 µM.

For the compound `O=C1O[C@H](CCC2CCCCC2)[C@H]1CC1CCCCC1`, the Ki came to 6.3 µM.
